# Cyclic peptide permeability, from CycPeptMPDB

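Conditions beyond the assay type are not listed; see the original paper. The list need not hold all peptides of the study. Entries at the database's floor value (log10 P of -10) are not listed.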

PAMPA is the parallel artificial membrane permeability assay, which has no cells and reads passive diffusion.
Permeability is given as log10 of P in cm/s; higher (less negative) is more permeable.

compound,PAMPA (log10 cm/s)
CC(=O)N1CCC[C@H]1C(=O)N(C)[C@H](CC(C)C)C(=O)N[C@@H]1C(=O)N[C@H](CC(C)C)C(=O)N(C)[C@H](CC(C)C)C(=O)N[C@@H](CC(C)C)C(=O)N(C)[C@@H](C)C(=O)N[C@@H](CC(C)C)C(=O)N2CCC[C@@H]2C(=O)O[C@@H]1C,-5.40
CC(=O)N1CCC[C@@H]1C(=O)N(C)[C@H](CC(C)C)C(=O)N[C@@H]1C(=O)N[C@H](CC(C)C)C(=O)N[C@H](CC(C)C)C(=O)N[C@H](CC(C)C)C(=O)N[C@H](C)C(=O)N[C@H](CC(C)C)C(=O)N2CCC[C@@H]2C(=O)O[C@@H]1C,-8.52
CC(=O)N1CCC[C@H]1C(=O)N(C)[C@@H](CC(C)C)C(=O)N[C@@H]1C(=O)N(C)[C@@H](CC(C)C)C(=O)N(C)[C@H](CC(C)C)C(=O)N[C@H](CC(C)C)C(=O)N[C@@H](C)C(=O)N[C@H](CC(C)C)C(=O)N2CCC[C@@H]2C(=O)O[C@@H]1C,-6.74
CC(=O)N1CCC[C@@H]1C(=O)N(C)[C@@H](CC(C)C)C(=O)N[C@@H]1C(=O)N(C)[C@H](CC(C)C)C(=O)N[C@H](CC(C)C)C(=O)N(C)[C@H](CC(C)C)C(=O)N[C@@H](C)C(=O)N[C@@H](CC(C)C)C(=O)N2CCC[C@H]2C(=O)O[C@@H]1C,-5.83
CC(=O)N1CCC[C@@H]1C(=O)N(C)[C@@H](CC(C)C)C(=O)N[C@@H]1C(=O)N[C@H](CC(C)C)C(=O)N[C@@H](CC(C)C)C(=O)N(C)[C@@H](CC(C)C)C(=O)N(C)[C@@H](C)C(=O)N[C@@H](CC(C)C)C(=O)N2CCC[C@H]2C(=O)O[C@@H]1C,-5.60
CC(=O)N1CCC[C@H]1C(=O)N(C)[C@@H](CC(C)C)C(=O)N[C@@H]1C(=O)N(C)[C@@H](CC(C)C)C(=O)N(C)[C@@H](CC(C)C)C(=O)N[C@@H](CC(C)C)C(=O)N(C)[C@H](C)C(=O)N[C@H](CC(C)C)C(=O)N2CCC[C@@H]2C(=O)O[C@@H]1C,-5.89
CC(=O)N1CCC[C@@H]1C(=O)N(C)[C@H](CC(C)C)C(=O)N[C@@H]1C(=O)N[C@H](CC(C)C)C(=O)N(C)[C@H](CC(C)C)C(=O)N[C@H](CC(C)C)C(=O)N(C)[C@H](C)C(=O)N[C@@H](CC(C)C)C(=O)N2CCC[C@H]2C(=O)O[C@@H]1C,-6.19
CC(=O)N1CCC[C@@H]1C(=O)N(C)[C@@H](CC(C)C)C(=O)N[C@@H]1C(=O)N(C)[C@H](CC(C)C)C(=O)N(C)[C@H](CC(C)C)C(=O)N[C@H](CC(C)C)C(=O)N(C)[C@@H](C)C(=O)N[C@H](CC(C)C)C(=O)N2CCC[C@H]2C(=O)O[C@@H]1C,-5.42
CC(=O)N1CCC[C@H]1C(=O)N(C)[C@H](CC(C)C)C(=O)N[C@@H]1C(=O)N[C@@H](CC(C)C)C(=O)N[C@@H](CC(C)C)C(=O)N[C@@H](CC(C)C)C(=O)N(C)[C@@H](C)C(=O)N[C@@H](CC(C)C)C(=O)N2CCC[C@@H]2C(=O)O[C@@H]1C,-6.31
CC(=O)N1CCC[C@@H]1C(=O)N(C)[C@@H](CC(C)C)C(=O)N[C@@H]1C(=O)N[C@H](CC(C)C)C(=O)N(C)[C@@H](CC(C)C)C(=O)N(C)[C@@H](CC(C)C)C(=O)N[C@@H](C)C(=O)N[C@H](CC(C)C)C(=O)N2CCC[C@H]2C(=O)O[C@@H]1C,-5.46
CC(=O)N1CCC[C@H]1C(=O)N(C)[C@H](CC(C)C)C(=O)N[C@@H]1C(=O)N(C)[C@H](CC(C)C)C(=O)N[C@H](CC(C)C)C(=O)N[C@@H](CC(C)C)C(=O)N[C@@H](C)C(=O)N[C@@H](CC(C)C)C(=O)N2CCC[C@H]2C(=O)O[C@@H]1C,-6.50
CC(=O)N1CCC[C@@H]1C(=O)N(C)[C@H](CC(C)C)C(=O)N[C@@H]1C(=O)N(C)[C@@H](CC(C)C)C(=O)N(C)[C@H](CC(C)C)C(=O)N[C@@H](CC(C)C)C(=O)N(C)[C@H](C)C(=O)N[C@H](CC(C)C)C(=O)N2CCC[C@H]2C(=O)O[C@@H]1C,-5.63
CC(=O)N1CCC[C@@H]1C(=O)N(C)[C@H](CC(C)C)C(=O)N[C@@H]1C(=O)N[C@H](CC(C)C)C(=O)N[C@H](CC(C)C)C(=O)N(C)[C@@H](CC(C)C)C(=O)N(C)[C@@H](C)C(=O)N[C@@H](CC(C)C)C(=O)N2CCC[C@H]2C(=O)O[C@@H]1C,-5.48

Extract of 2 entries:

compound,PAMPA (log10 cm/s)
CC(=O)N1CCC[C@@H]1C(=O)N(C)[C@@H](CC(C)C)C(=O)N[C@@H]1C(=O)N[C@H](CC(C)C)C(=O)N(C)[C@@H](CC(C)C)C(=O)N(C)[C@@H](CC(C)C)C(=O)N[C@@H](C)C(=O)N[C@H](CC(C)C)C(=O)N2CCC[C@H]2C(=O)O[C@@H]1C,-5.46
CC(=O)N1CCC[C@@H]1C(=O)N(C)[C@H](CC(C)C)C(=O)N[C@@H]1C(=O)N[C@H](CC(C)C)C(=O)N[C@H](CC(C)C)C(=O)N[C@H](CC(C)C)C(=O)N[C@H](C)C(=O)N[C@H](CC(C)C)C(=O)N2CCC[C@@H]2C(=O)O[C@@H]1C,-8.52

Data: CycPeptMPDB; original report Kelly et al. 2021, doi:10.1021/jacs.0c06115.